Experimental data published in paper PMC8007111, “Novel Potent Muscarinic Receptor Antagonists: Investigation on the Nature of Lipophilic Substituents in the 5- and/or 6-Positions of the 1,4-Dioxane Nucleus” (Journal of Medicinal Chemistry, 2020).

By UniProt entry, the sequences of proteins in these tests, tags left out. Where a name states a change or a piece, a line headed by the entry shows the natural chain unless it says otherwise.
UniProt P20309, whole entry: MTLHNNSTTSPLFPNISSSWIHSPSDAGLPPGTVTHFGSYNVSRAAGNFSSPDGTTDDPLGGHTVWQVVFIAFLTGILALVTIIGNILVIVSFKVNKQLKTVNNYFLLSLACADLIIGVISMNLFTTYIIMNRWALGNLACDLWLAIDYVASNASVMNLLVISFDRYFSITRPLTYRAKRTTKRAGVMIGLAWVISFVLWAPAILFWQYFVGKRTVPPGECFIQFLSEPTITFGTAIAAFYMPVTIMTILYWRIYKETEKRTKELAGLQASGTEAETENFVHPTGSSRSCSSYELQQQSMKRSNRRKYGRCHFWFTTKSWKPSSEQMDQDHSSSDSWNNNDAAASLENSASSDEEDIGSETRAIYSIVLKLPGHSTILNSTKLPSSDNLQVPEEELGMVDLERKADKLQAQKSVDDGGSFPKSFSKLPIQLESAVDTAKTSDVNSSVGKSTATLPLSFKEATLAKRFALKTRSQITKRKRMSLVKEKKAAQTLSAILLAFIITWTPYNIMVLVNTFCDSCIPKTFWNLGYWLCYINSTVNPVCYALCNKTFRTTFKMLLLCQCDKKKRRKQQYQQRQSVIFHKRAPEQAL
UniProt P08173, whole entry: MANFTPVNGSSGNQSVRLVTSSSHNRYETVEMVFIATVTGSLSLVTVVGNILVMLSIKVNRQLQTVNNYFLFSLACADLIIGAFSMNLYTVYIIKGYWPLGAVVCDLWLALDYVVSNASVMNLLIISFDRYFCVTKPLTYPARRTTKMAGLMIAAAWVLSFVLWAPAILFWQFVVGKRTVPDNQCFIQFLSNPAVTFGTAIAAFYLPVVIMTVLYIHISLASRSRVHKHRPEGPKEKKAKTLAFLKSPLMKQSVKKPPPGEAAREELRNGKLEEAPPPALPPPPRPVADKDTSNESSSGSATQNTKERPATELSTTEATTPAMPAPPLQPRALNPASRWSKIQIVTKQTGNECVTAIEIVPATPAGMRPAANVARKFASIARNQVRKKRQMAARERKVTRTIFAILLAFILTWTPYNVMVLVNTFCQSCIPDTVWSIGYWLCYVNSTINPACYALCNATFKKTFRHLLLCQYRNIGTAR
UniProt P08172, whole entry: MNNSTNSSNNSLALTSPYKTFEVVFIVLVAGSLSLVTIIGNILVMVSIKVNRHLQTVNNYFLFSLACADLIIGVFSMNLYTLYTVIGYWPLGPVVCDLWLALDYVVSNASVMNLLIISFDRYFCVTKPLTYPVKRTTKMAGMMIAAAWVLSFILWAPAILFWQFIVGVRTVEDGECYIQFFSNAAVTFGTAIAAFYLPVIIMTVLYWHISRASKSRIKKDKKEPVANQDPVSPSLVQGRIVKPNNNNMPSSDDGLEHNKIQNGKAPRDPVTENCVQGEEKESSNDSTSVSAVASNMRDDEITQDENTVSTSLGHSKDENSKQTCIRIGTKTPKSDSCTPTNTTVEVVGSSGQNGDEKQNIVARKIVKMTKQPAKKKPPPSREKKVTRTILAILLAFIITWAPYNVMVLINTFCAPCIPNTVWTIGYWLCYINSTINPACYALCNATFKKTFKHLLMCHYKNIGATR
UniProt P08912, whole entry: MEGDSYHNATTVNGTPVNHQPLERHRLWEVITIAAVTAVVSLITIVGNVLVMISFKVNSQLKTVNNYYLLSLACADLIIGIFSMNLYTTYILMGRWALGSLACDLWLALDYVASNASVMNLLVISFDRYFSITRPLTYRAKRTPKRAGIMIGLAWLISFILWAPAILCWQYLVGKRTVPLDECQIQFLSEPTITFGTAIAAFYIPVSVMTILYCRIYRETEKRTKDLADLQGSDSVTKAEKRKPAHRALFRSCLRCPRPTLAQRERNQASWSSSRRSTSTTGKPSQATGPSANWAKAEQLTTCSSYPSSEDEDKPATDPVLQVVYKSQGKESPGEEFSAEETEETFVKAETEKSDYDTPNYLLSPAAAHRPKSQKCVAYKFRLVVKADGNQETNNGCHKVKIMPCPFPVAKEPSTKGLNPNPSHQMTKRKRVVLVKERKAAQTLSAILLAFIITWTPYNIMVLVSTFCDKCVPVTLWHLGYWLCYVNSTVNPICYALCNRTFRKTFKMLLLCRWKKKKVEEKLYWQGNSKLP
UniProt P11229: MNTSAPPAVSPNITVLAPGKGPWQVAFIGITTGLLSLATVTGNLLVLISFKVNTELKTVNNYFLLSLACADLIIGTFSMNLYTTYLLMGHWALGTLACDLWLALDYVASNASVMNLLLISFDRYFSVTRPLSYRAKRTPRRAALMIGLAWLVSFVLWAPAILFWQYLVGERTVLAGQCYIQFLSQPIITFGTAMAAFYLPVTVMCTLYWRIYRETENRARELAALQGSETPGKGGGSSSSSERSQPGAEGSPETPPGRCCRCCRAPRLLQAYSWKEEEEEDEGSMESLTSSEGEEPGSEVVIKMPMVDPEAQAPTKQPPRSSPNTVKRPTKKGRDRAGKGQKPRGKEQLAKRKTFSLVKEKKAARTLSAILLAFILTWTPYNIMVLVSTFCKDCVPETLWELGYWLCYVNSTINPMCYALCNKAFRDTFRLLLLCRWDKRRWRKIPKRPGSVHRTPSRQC

What was measured:
hM3 mAChR = biological target: T1, hM3 mAChR (Homo sapiens, UniProt P20309); assay: [3H]NMS inhibition radioligand binding, hM3 in CHO-K1 cell membranes
T1 construct: expressed in transfected cells; host or cells: CHO-K1 (membrane preparation)
Description: (§1) CHO-K1 cells stably transfected with the human muscarinic receptor subtypes (hM1–5) were grown in Dulbecco’s modified Eagle’s medium (DMEM) with nutrient mixture F12 (DMEM/F12, 50/50), containing 10% fetal bovine serum, penicillin (100 U/mL), streptomycin (100 U/mL), L-glutamine (4 mM), and geneticin (G-418, 50 μg/mL) at 37 °C in a 5% CO2 humidified incubator. […] Serum (0.7 mL) was added to inactivate the trypsin, and the cells were spun down by centrifuging at 300g for 5 min. The cells were then resuspended in ice-cold 25 mM sodium phosphate buffer containing 5 mM MgCl2, pH 7.4 (binding buffer) and homogenized using a cell disrupter (Ultra-Turrax, setting 3, 30 s). The homogenate was sedimented by centrifugation (17,000g, 15 min). […] The protein content was determined by the method of Bradford (1976) with bovine serum albumin (Sigma) as a standard and stored at −80 °C.
(§2) Inhibition radioligand binding assays were conducted as previously described[48],[49] with 0.2 nM [^3H]NMS in binding buffer in a final volume of 250 μL. […] Bound and free radioactivity were separated by filtering the assay mixture through UniFilter GF/B plates using a FilterMate Cell Harvester (PerkinElmer Life and Analytical Science). The filter bound radioactivity was counted by a TopCount NXT Microplate Scintillation Counter (PerkinElmer Life and Analytical Science). […]

hM4 mAChR = biological target: T2, hM4 mAChR (Homo sapiens, UniProt P08173); assay: [3H]NMS inhibition radioligand binding, hM4 in CHO-K1 cell membranes; settings: eutomer vs distomer
T2 construct: expressed in transfected cells; host or cells: CHO-K1 (membrane preparation)
Description: as §1, §2

hM2 mAChR = biological target: T3, hM2 mAChR (Homo sapiens, UniProt P08172); assay: [3H]NMS inhibition radioligand binding, hM2 in CHO-K1 cell membranes; settings: eutomer vs distomer
T3 construct: expressed in transfected cells; host or cells: CHO-K1 (membrane preparation)
Description: as §1, §2

hM5 mAChR = biological target: T4, hM5 mAChR (Homo sapiens, UniProt P08912); assay: [3H]NMS inhibition radioligand binding, hM5 in CHO-K1 cell membranes; settings: eutomer vs distomer
T4 construct: expressed in transfected cells; host or cells: CHO-K1 (membrane preparation)
Description: as §1, §2

hM1 mAChR = biological target: T5, hM1 mAChR (Homo sapiens, UniProt P11229); assay: [3H]NMS inhibition radioligand binding, hM1 in CHO-K1 cell membranes; settings: eutomer vs distomer
T5 construct: expressed in transfected cells; host or cells: CHO-K1 (membrane preparation)
Description: as §1, §2

| ER (eudismic ratio) hM3 (hM3 mAChR; eutomer vs distomer) | ER (eudismic ratio) hM4 (hM4 mAChR) | ER (eudismic ratio) hM2 (hM2 mAChR) | ER (eudismic ratio) hM5 (hM5 mAChR) | ER (eudismic ratio) hM1 (hM1 mAChR) | Compound | M3/M2 selectivity ratio (hM3 mAChR; from binding affinities at hM3 and hM2) |
| --- | --- | --- | --- | --- | --- | --- |
|  |  |  |  |  | C[N+](C)(C)CC1COCC(c2ccccc2)(c2ccccc2)O1.[I-] (stereo not drawn) [compound 2, reference compound] | 1.6 |
| 42 | 102 | 12 | 63 | 32 | C[N+](C)(C)C[C@H]1COCC(c2ccccc2)(c2ccccc2)O1 [(S)-(−)-2, reference compound] |  |
